Molecular target: T1, MC1R (Homo sapiens, UniProt Q01726)
T1 construct: expressed in transfected cells
Test: Competitive ligand binding assay at the MC1R with 125I-NDP-MSH
Conditions: B16UWT-3 cells, competition with 125I-NDP-MSH, compared with αMSH
Description: Competitive ligand binding experiments at the MC1R were carried out using B16UWT-3 cells in duplicate wells on two separate occasions. Forty thousand cells per well were seeded into 96-well plates, and following overnight incubation, the cells were washed once with binding buffer (minimal essential medium with Earle's salts, 25 mM HEPES pH 7.0, 0.2% bovine serum albumin, 1 mM 1,10-phenanthroline, 0.5 mg/l leupeptine and 200 mg/l bacitracin). Cells were incubated for 2 hours at room temperature with 0.05 ml of binding buffer containing 15,000 c.p.m. of ^125I-NDP-MSH and concentrations of unlabelled ligand ranging from 10^−2-10^−3 nM. The cells were subsequently washed twice with 0.2 ml of ice cold binding buffer and detached from the plates with 0.1 ml of 0.1 M NaOH. Radioactivity was counted using a Packard auto-Gamma Counter (Packard Bioscience Ltd., UK) and data analysed with a software package for radioligand binding analyses (GraphPad Software, Inc. San Diego, USA).

Amino acid sequences for entries named in this document (tags omitted). A change or cut given only in a name is not applied to a line headed by its entry.
UniProt Q01726: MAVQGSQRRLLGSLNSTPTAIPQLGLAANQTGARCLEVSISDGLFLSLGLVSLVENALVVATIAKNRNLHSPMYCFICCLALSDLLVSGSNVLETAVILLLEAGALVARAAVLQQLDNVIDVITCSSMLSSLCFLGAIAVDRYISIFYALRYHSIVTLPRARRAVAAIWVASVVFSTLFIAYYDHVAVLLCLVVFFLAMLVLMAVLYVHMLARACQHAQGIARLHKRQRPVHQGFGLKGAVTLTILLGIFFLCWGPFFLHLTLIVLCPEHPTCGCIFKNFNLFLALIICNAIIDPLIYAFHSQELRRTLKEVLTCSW

Nle^4-D-Phe^7-αMSH [NDP-MSH]
binding affinity for MC1R: greater affinity for MC1R
